Rows were chosen to be rich in hits. Some 1% of all compounds tested hit in one or more screens of this group.
CDK5 p35 inh – inhibitors of human CDK5/p35 kinase, primary screen, biochemical, single concentration; Cyclin-dependent kinase 5 (Homo sapiens) + Cyclin-dependent kinase 5 activator 1 (Homo …; Recombinant CDK5/p35, ADP-Glo luminescence, 60 min; inhibition, % at 10 µM; 330,000 compounds, 0.01% hits; AID 488839, 2010;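 active means highest replicate inhibition of at least 50% and at least 75% of replicates reaching 50%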
Yeast UUG start – alters start codon recognition fidelity in yeast. S. cerevisiae UUG-firefly luciferase reporter, luminescence/redox ratio. AID 602363. activity score, % at 18.7 µM. hit rate 0.13% among 350,000;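 active = replicate mean at a twofold rise or more, about +100% in these data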;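 note: firefly luciferase made from a UUG start codon reports start codon fidelity; reporter light over untreated wells divided by growth signal over untreated wells; some hits fall short of that in this replicate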
Cneo AK release – Cryptococcus neoformans cell lysis inducers, primary screen, AK release luminescence, single concentration | C. neoformans lysis, adenylate kinase release luminescence, 4 h; normalised: neutral wells 0, clomiphene wells 100 | lysis activity, % at 15 µM | 360,000 compounds, 0.2% hits | AID 651654, 2012;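 active means mean lysis activity across replicates of at least 80%, whatever share of replicates individually reach that level; inactive means mean lysis activity below 80%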
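Material: C. neoformans cells | Amount: Yeast cell density of 5 × 10^6 cells/mL | Medium: Fresh YPD growth medium | Dosing: Single dose | Times: Static 4 h at 37 °C with compound, 1 h detection | Detection: AK luminescence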
Rtt109 HAT inh – inhibitors of C. albicans Rtt109/Vps75 HAT, primary screen, biochemical, ThioGlo CoA-SH fluorescence, plate reader; Histone acetyltransferase RTT109 (Candida albicans (strain SC5314 / ATCC MYA-2876)), …; purified Rtt109/Vps75, 4 h; inhibition, % at 34.9 µM; 330,000 compounds, 0.16% hits; AID 540336, 2011;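 active means inhibition of at least 50% in every replicate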
C2C12 statin – suppressors of statin myotoxicity in C2C12 myotubes, primary screen, cell-based, single point, plate reader; C2C12 myotubes + simvastatin, ATP luminescence, 48 h; scaled: DMSO 0, geranylgeraniol control 100; rescue of ATP level, % at 7.49 µM; 330,000 compounds, 0.78% hits;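 active means mean ATP rescue above about 67%, or every replicate alone reaching that limit, limit read from the data, passing the limit was not always enough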;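 further: myotubes were challenged with 10 µM simvastatin during compound exposure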
Each line names hits and unclear results; the compound was inactive in the other large screens.

C[C@@H]1CCCCO[C@@H](CN(C)C(=O)Cc2ccccc2)[C@@H](C)CN([C@@H](C)CO)C(=O)c2cc(NC(=O)Nc3ccc(C(F)(F)F)cc3)ccc2O1	none (no result: CDK5 p35 inh, Rtt109 HAT inh)
CCCNC(=O)[C@H]1N[C@H]2c3ccc(-c4cccc(F)c4)c(=O)n3C[C@H]2[C@@H]1CO	none (no result: CDK5 p35 inh, Yeast UUG start, Rtt109 HAT inh)
CN(c1ccccc1C(=O)N1CCCC1)S(C)(=O)=O	C2C12 statin 99.7
CCCNC(=O)c1ccccc1NC(=O)c1ccccc1N(C)S(C)(=O)=O	C2C12 statin 103.1
CS(=O)(=O)N1CCN(C(=O)c2ccccc2F)CC1	C2C12 statin 94.5
CSc1ccccc1NC(=O)c1ccccc1N(C)S(C)(=O)=O	none
CSc1ccccc1NC(=O)c1ccccc1N(Cc1ccccc1)S(C)(=O)=O	C2C12 statin 102.3
CCCC[C@]12CCCC(=O)N1CCc1c2[nH]c2ccccc12	none (no result: CDK5 p35 inh, Rtt109 HAT inh, C2C12 statin)
C#CCN1[C@H](/C=C/C2CC2)[C@H](Cc2ccccc2)OC(=O)[C@@H]1Cc1ccccc1	none (no result: CDK5 p35 inh, Yeast UUG start, Rtt109 HAT inh, C2C12 statin)
Cc1ccc2c(c1)Sc1ccccc1CC2=O	C2C12 statin 82.9
O=C1Cc2ccccc2Sc2ccccc21	none
Cc1noc(C)c1S(=O)(=O)N(C)C[C@@H]1Oc2ccc(NS(=O)(=O)c3ccc(Cl)cc3)cc2CC(=O)N([C@H](C)CO)C[C@H]1C	none (no result: CDK5 p35 inh, Rtt109 HAT inh)
C[C@H](NC(=O)C[C@@H]1CC[C@@H](NC(=O)Cc2ccccn2)[C@H](CO)O1)c1ccccc1	none (no result: CDK5 p35 inh, Rtt109 HAT inh)
O=C1C(Cl)=C(NCCCN2CCOCC2)C(=O)N1CCc1ccccc1	none (no result: Yeast UUG start, Cneo AK release)
O=C1C(Cl)=C(NCCc2ccccc2)C(=O)N1CCc1ccccc1	C2C12 statin 163.9
C[C@@H]1CN([C@@H](C)CO)C(=O)c2cccc(NC(=O)Nc3ccccc3)c2O[C@@H]1CN(C)C	none (no result: CDK5 p35 inh, Rtt109 HAT inh)
COCCCNc1nc2c([nH]1)c(=O)[nH]c(=O)n2C	C2C12 statin 132.7
CCOCCCNc1nc2c([nH]1)c(=O)n(C)c(=O)n2C	none
Cc1c(NC(=O)C(C)OC(=O)COc2cccc3c2OC(C)(C)C3)c(=O)n(-c2ccccc2)n1C (configuration not stated)	C2C12 statin 114.2
C[C@H]1CN([C@@H](C)CO)C(=O)Cc2cc(NC(=O)Cc3cn(C)c4ccccc34)ccc2O[C@H]1CN(C)Cc1ccc(C(=O)O)cc1	none (no result: CDK5 p35 inh, Rtt109 HAT inh)
COc1ccc(CNC(=O)C[C@H]2CC[C@H]3[C@H](COc4ccc(NC(=O)C5CC5)cc4C(=O)N3C)O2)cc1	none (no result: CDK5 p35 inh, Rtt109 HAT inh)
CN1C(=O)c2cc(NS(=O)(=O)c3cccc(F)c3)ccc2OC[C@H]2O[C@H](CC(=O)O)CC[C@H]21	Cneo AK release 96.5 (no result: CDK5 p35 inh, Rtt109 HAT inh)
CN1C(=O)c2cc(NS(=O)(=O)c3cccc(F)c3)ccc2OC[C@H]2O[C@@H](CC(=O)O)CC[C@@H]21	none (no result: CDK5 p35 inh, Rtt109 HAT inh)
CN1C(=O)c2cc(NS(=O)(=O)c3cccc(F)c3)ccc2OC[C@@H]2O[C@@H](CC(=O)O)CC[C@H]21	Cneo AK release 96.5 (no result: CDK5 p35 inh, Rtt109 HAT inh)
COc1ccc(CNC(=O)C[C@H]2CC[C@H]3[C@@H](COc4ccc(NC(=O)C5CC5)cc4C(=O)N3C)O2)cc1	Cneo AK release 91.3 (no result: CDK5 p35 inh, Rtt109 HAT inh)
COC(=O)C[C@@H]1CC[C@@H]2[C@@H](COc3ccc(NS(=O)(=O)c4cccc(F)c4)cc3C(=O)N2C)O1	none (no result: CDK5 p35 inh, Rtt109 HAT inh)
CN1C(=O)c2cc(NS(=O)(=O)c3ccc(Cl)cc3)ccc2OC[C@@H]2O[C@H](CC(=O)N3CCc4ccccc4C3)CC[C@H]21	C2C12 statin 109.1 (no result: CDK5 p35 inh, Rtt109 HAT inh)
O=C(C[C@H]1CC[C@@H](NC(=O)CN2CCOCC2)[C@@H](CO)O1)NC1CCCCC1	none (no result: CDK5 p35 inh, Rtt109 HAT inh)
CN1C(=O)c2cc(NS(C)(=O)=O)ccc2OC[C@@H]2O[C@@H](CC(=O)O)CC[C@H]21	Cneo AK release 83.1 (no result: CDK5 p35 inh, Rtt109 HAT inh)
CS(=O)(=O)c1ccc(N)c(SSc2cc(S(C)(=O)=O)ccc2N)c1	Rtt109 HAT inh 181.7
Cn1c(=O)c2c(ncn2CC(=O)NCc2cccnc2)n(C)c1=O	C2C12 statin 106.5
Cn1c(=O)c2c(ncn2CC(=O)OCC(=O)NCc2ccc(Cl)cc2)n(C)c1=O	none (no result: Yeast UUG start, Cneo AK release, C2C12 statin)
CC(C)N1C(=O)C2(OCCCO2)c2cc(Br)ccc21	Cneo AK release 84.4
C[C@@H]1CN([C@@H](C)CO)C(=O)c2cc(C3=CCCC3)cnc2O[C@@H]1CN(C)C(=O)CN1CCOCC1	none (no result: CDK5 p35 inh, Rtt109 HAT inh)
COc1ccc(C2=NOC(C(=O)NCc3cccs3)C2)cc1 (configuration not stated)	C2C12 statin 96.7
COc1cc(C2=NOC(C(=O)NCc3ccco3)C2)cc(OC)c1OC (configuration not stated)	none (no result: C2C12 statin)
COc1cc(C2=NOC(C(=O)NCc3cccs3)C2)cc(OC)c1OC (configuration not stated)	C2C12 statin 87.3
C[C@H]1CN([C@@H](C)CO)C(=O)CCCn2cc(nn2)CO[C@H]1CN(C)C(=O)Nc1ccccc1F	none (no result: CDK5 p35 inh, Yeast UUG start, Rtt109 HAT inh)
CNC[C@@H]1Oc2ccc(NC(=O)Cc3ccccc3)cc2C(=O)N([C@H](C)CO)C[C@H]1C	none (no result: CDK5 p35 inh, Rtt109 HAT inh)
COc1ccccc1NC(=O)c1cc2ccc(O)cc2o/c1=N\O	C2C12 statin 68.7
COc1ccccc1NC(=O)c1cc2ccccc2o/c1=N\O	none
CS(=O)(=O)N1[C@@H](C#N)[C@H](c2ccc(C#Cc3cccc(F)c3)cc2)[C@@H]1CO	none (no result: CDK5 p35 inh, Rtt109 HAT inh)
Cc1noc(NS(=O)(=O)c2ccc(N/C=C/C(=O)c3cccnc3)cc2)c1C	Rtt109 HAT inh 72.5
Cc1noc(NS(=O)(=O)c2ccc(N/C=C\C(=O)c3ccncc3)cc2)c1C	none (no result: Rtt109 HAT inh)
COc1ccc(NC(=O)CSc2nc(C)cs2)cc1OC	none
COc1cccc(NC(=O)CSc2nc(C)cs2)c1	C2C12 statin 108.6
CC1CCCCC1N(C)C1CCN(C(=O)CNC(=O)/C=C/c2cccc(Cl)c2)CC1 (configuration not stated)	Rtt109 HAT inh 51.3
COc1ccc(NC(=O)CSc2nnc(-c3ccccc3Cl)n2Cc2ccco2)c(OC)c1	C2C12 statin 115.0
COc1ccc(N2CCN(C(=O)CSc3nnc(COc4cccc5cccnc45)o3)CC2)cc1	none
COc1ccc(C=O)cc1CSc1nnc(COc2cccc3cccnc23)o1	C2C12 statin 138.0
COc1ccc(NC(=O)Nc2ccc3c(c2)C(=O)N([C@@H](C)CO)C[C@@H](C)[C@@H](CN(C)Cc2ccccc2)OCCCC[C@H](C)O3)cc1	none (no result: CDK5 p35 inh, Rtt109 HAT inh, C2C12 statin)
CCN(CC)C(=O)c1sc(N)c(C#N)c1C	C2C12 statin 127.9
CCOC(=O)C(=O)Nc1sc(C(=O)N(CC)CC)c(C)c1C#N	none (no result: Yeast UUG start, Cneo AK release, C2C12 statin)
C=C(C)COc1ccc2oc(C)c(C(=O)OCCOC)c2c1	C2C12 statin 105.9
COCCOC(=O)c1c(C)oc2ccc(OCc3ccccc3)cc12	none (no result: Yeast UUG start, Cneo AK release, C2C12 statin)
C[C@H]1CN([C@@H](C)CO)C(=O)Cc2cc(NC(=O)C3CCCCC3)ccc2O[C@H]1CN(C)C(=O)Nc1ccccc1	none (no result: CDK5 p35 inh, Rtt109 HAT inh)
